Molecular target: T1, acyl CoA: cholesterol acyltransferase (ACAT-EC 2.3.1.26) (Oryctolagus cuniculus, UniProt A0A5F9CPP4)
T1 construct: microsomal preparations from atherosclerotic rabbit thoracic aorta (intimamedia); from tissue; host or cells: microsomes of atherosclerotic rabbit thoracic aorta (intima-media)
T1 sequence (A0A5F9CPP4 1-555): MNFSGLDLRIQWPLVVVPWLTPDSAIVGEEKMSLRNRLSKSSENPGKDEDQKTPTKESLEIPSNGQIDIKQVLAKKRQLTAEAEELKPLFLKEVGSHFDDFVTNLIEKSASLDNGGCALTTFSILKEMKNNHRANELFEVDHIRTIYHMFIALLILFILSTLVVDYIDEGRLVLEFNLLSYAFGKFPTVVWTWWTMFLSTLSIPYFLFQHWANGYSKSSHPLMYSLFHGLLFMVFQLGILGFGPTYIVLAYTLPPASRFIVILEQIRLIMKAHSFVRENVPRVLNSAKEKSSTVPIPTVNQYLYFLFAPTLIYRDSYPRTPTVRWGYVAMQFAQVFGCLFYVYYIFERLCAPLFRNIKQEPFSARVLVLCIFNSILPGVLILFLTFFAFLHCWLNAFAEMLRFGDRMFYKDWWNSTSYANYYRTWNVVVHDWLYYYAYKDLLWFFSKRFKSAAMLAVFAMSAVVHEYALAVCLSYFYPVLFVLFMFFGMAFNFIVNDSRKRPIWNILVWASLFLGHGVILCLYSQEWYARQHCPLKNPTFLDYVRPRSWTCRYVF
Assay: ACAT inhibition in microsomes from atherosclerotic rabbit thoracic aortas (Table 2)
Assay type: biochemical

Structure (SMILES): CC(C)(Oc1ccc(CCNC(=O)c2ccc(Cl)cc2)cc1)C(=O)O [Bezafibrate, reference compound]
- IC50: 513 µM

Source: patent US4985440A, “Hypolipidaemic imidazol-2-yl-derivatives of bicyclic compounds” (priority 1988, dated 1991)
